# This is a selection; strong and weak results do not stand in their true shares. Active and inactive are the calls of the source. Cut-off read from the data, not from the text of the source: active = potentiation above about 50%; inconclusive = mostly about 30% to 49%; inactive = weaker than that.
# By UniProt entry, the sequences of proteins in these tests, tags left out.
# UniProt P14416, whole entry: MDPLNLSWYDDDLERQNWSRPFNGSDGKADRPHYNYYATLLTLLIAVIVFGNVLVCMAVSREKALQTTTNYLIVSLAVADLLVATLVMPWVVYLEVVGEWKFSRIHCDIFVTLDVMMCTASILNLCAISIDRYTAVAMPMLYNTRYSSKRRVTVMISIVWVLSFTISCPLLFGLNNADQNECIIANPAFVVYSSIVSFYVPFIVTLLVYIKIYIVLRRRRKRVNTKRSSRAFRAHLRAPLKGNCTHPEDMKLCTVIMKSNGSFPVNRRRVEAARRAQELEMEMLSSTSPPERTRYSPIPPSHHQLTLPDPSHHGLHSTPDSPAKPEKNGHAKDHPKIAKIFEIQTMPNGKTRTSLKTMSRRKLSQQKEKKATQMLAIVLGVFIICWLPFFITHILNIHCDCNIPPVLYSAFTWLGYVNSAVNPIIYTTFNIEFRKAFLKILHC
# Target: D(2) dopamine receptor (Homo sapiens) (UniProt P14416)
# Experiment: Beta-Arrestin HTS for Positive Allosteric Modulators of the Human D2 Dopamine Receptor: Potentiators
# Settings: DiscoveRx D2 beta-arrestin cells, luminescence, 90 min; active compounds read high; 100% = 57 uM dopamine signal
# Text: There is great interest in identifying small molecule ligands for G-protein coupled receptors (GPCRs) as nearly 50% of all FDA-approved drugs target these important receptor proteins. […] Amongst the dopamine receptors (DARs), the D2 is arguably one of the most validated drug targets in neurology and psychiatry. For instance, all receptor-based antiparkinsonian drugs primarily work via stimulating the D2 DAR, whereas all FDA-approved antipsychotic agents are antagonists of this receptor. The D2 DAR is also therapeutically targeted in other disorders such as restless legs syndrome, tardive dyskinesia, Tourette's syndrome, and hyperprolactinemia.
# To this end, a miniaturized qHTS screen was developed to be screened against the Molecular Libraries Small Molecule Repository (MLSMR). This assay seeks to identify potentiators against the D2 DAR.
# NIH Molecular Libraries Probe Production Network [MLPCN]
# NIH Chemical Genomics Center [NCGC]
# PI Name: David Sibley, National Institutes of Neurological Disorders and Stroke
# DiscoveRx D2 cells were thawed from frozen stock and seeded at 2,100 cells/ 3 uL/well media (DiscoveRx Plating Reagent 2) with MultiDrop Combi dispenser (Thermo Scientific, Logan, UT) onto white tissue culture treated 1536-well Aurora plates (Brooks Automation, Chelmsford, MA) and allowed to attach overnight at 37 deg C, 5% CO2. Next, 23 nL/well of compound solutions in DMSO were added with a pintool transfer (Kalypsis, San Diego, CA). As the positive control, 1 uL/well dopamine (EC100, 57 uM final concentration) diluted in buffer (HBSS + 10 mM HEPES + SMB + 0.1 %Tween-20) was dispensed to 1 column of each plate. EC20 (Dopamine at 50 nM final concentration) was dispensed to the rest of the plate except columns 1 &2 which were used as negative control (EC=0, buffer only), 1 uL/well as well. The cells were stimulated by compounds and dopamine for 90 minutes at 37 deg C, 5% CO2, after which 1.5 uL/well of DiscoveRx detection reagent was added with BioRAPTR FRD dispenser. The detection reagent was prepared by mixing of Galacton Star Substrate, Emerald II solution and PathHunter buffer (supplied by the assay kit) together at 1:5:19 proportion accordingly just prior to dispensing. The plates were incubated at ambient temperature for 1 hour and then the luminescent signal was read on ViewLux plate reader (PerkinElmer, Waltham, MA).
row,SMILES,potentiation
1,COc1cc(C(=O)NCC2(N3CCOCC3)CCCCC2)cc(OC)c1C,inactive: -34.3%
2,CCCCn1nnnc1C(c1ccccc1)N1CCC(n2c(=O)[nH]c3ccccc32)CC1 (stereo unspecified),inactive: 10.5%
3,O=C(NCC1(N2CCOCC2)CCCCC1)c1cc(Br)ccc1Cl,inactive: 1.88%
4,O=c1[nH]c2ccccc2n1C1CCN(C(c2cccs2)c2nnnn2C2CCCCC2)CC1 (stereo unspecified),inactive: 8.49%
5,O=c1[nH]c2ccccc2n1C1CCN(C(c2ccnc3ccccc23)c2nnnn2C2CCCC2)CC1 (stereo unspecified),inactive: -3.43%
6,COc1ccc(C(=O)NCC2(N3CCOCC3)CCCCC2)cc1OC,inactive: -3.29%
7,CCOC(=O)N1CCC(Nc2ccc(C)cc2)CC1,inactive: 12.4%
8,COc1cccc(C(c2nnnn2C(C)(C)C)N2CCC(n3c(=O)[nH]c4ccccc43)CC2)c1OC (stereo unspecified),inactive: -3.7%
9,N/C(=N\O)c1c(N)no[n+]1[O-],inactive: -8.36%
10,O=c1[nH]c2ccccc2n1C1CCN(C(c2cccs2)c2nnnn2C2CCCC2)CC1 (stereo unspecified),inactive: 2.61%
11,O=C(O)c1cccc(Nc2c([N+](=O)[O-])cc([N+](=O)[O-])cc2[N+](=O)[O-])c1,inactive: -18.4%
12,CCc1cc(C(=O)NCC2(N3CCCCC3)CCCCC2)sc1C,inactive: -35.4%
13,O=C(OC1CN2CCC1CC2)C1c2ccccc2C=Cc2ccccc21 (stereo unspecified),inactive: -9.32%
14,CCCCn1nnnc1C(c1cccc(OC)c1OC)N1CCC(n2c(=O)[nH]c3ccccc32)CC1 (stereo unspecified),inactive: 10.3%
15,N#Cc1ccc(C(=O)NCC2(N3CCCCC3)CCCCC2)cc1,inactive: 0.568%
16,CC(C)(C)OC(=O)N1CCC(N(C(=O)c2ccccc2)c2ccc(Cl)cc2)CC1,inactive: -6.92%
17,CCOC(=O)C(CC)C1=NC(C)(C)Cc2ccccc21.O=[N+]([O-])c1cc([N+](=O)[O-])c(O)c([N+](=O)[O-])c1 (stereo unspecified),inactive: -15.4%
18,CN(C)C1(CNC(=O)c2cccc(C#N)c2)CCCCC1,inactive: -1.87%
19,Cc1cc(N(CCCl)CCCl)ccc1C=O,inactive: -6.45%
20,O=c1[nH]c2ccccc2n1C1CCN(C(c2ccccc2)c2nnnn2C2CCCC2)CC1 (stereo unspecified),inactive: -15%
21,CCCN1CCC(Nc2cc(OC)cc(OC)c2)CC1,inactive: -7.72%
22,c1ccc(CN2CCC(Nc3ccccc3)CC2)cc1,inactive: -30.6%
23,CC(C)(C)n1nnnc1C(c1cccc2ccccc12)N1CCC(n2c(=O)[nH]c3ccccc32)CC1 (stereo unspecified),inactive: 1.05%

row,SMILES,potentiation
1,CCC(c1nnnn1C1CCCCC1)N1CCC(n2c(=O)[nH]c3ccccc32)CC1 (stereo unspecified),inactive: -5.52%
2,COc1cccc(C(c2nnnn2C2CCCCC2)N2CCC(n3c(=O)[nH]c4ccccc43)CC2)c1OC (stereo unspecified),inactive: 1.86%
3,CC(=O)N(c1ccccc1)C1CCNCC1,inactive: -6.17%
4,COc1cc(OC)cc(C(=O)NCC2(N3CCCCC3)CCCCC2)c1,inactive: -12.4%
5,O=c1[nH]c2ccccc2n1C1CCN(C(c2ccnc3ccccc23)c2nnnn2C2CCCCC2)CC1 (stereo unspecified),inactive: 4.5%
6,Fc1ccccc1NC1CCN(Cc2ccccc2)CC1,inactive: -30.9%
7,Cc1ccc(Nc2c([N+](=O)[O-])cc([N+](=O)[O-])cc2[N+](=O)[O-])cc1,inactive: -15.9%
8,Cc1ccc(C(=O)NCC2(N3CCCCC3)CCCCC2)o1,inactive: 1.75%
9,Cc1ccc(NC2(C#N)CCN(Cc3ccccc3)CC2)cc1,inactive: -8.8%
10,CCN1CCC(Nc2cccc(F)c2)CC1,inactive: -29.5%
11,COc1ccc(C(c2nnnn2C2CCCCC2)N2CCC(n3c(=O)[nH]c4ccccc43)CC2)cc1 (stereo unspecified),inactive: -4.08%
12,CC(C)(C)n1nnnc1C(c1ccnc2ccccc12)N1CCC(n2c(=O)[nH]c3ccccc32)CC1 (stereo unspecified),inactive: -0.0228%
13,Cc1ccccc1NC1(C#N)CCN(Cc2ccccc2)CC1,inactive: -2.58%
14,CN(C)c1ccc(C(=O)NCC2(N3CCCCC3)CCCCC2)cc1,inactive: -9.09%
15,Cn1c(=O)[nH]cc(N(CCCl)CCCl)c1=O,inactive: -1.64%
16,O=C(NCC1(N2CCCCC2)CCCCC1)c1ccco1,inactive: -2.13%
17,CN1CCC(Nc2ccc(F)c(Cl)c2)CC1,inactive: -12.5%
18,CCOc1ncccc1C(=O)NCC1(N2CCOCC2)CCCCC1,inactive: -23.4%
19,O=C(O)C1(Nc2ccccc2)CCN(Cc2ccccc2)CC1,inactive: -9.46%
20,CC(C)(C)OC(=O)N1CCC(Nc2ccccc2)CC1,inactive: -2.8%
21,O=c1[nH]c2ccccc2n1C1CCN(C(c2cc3ccccc3o2)c2nnnn2C2CCCC2)CC1 (stereo unspecified),inactive: -0.194%
22,CCCOc1ccc(C(=O)NCC2(N(C)C)CCCCC2)cc1,inactive: -7.95%
23,COc1cc(OC)cc(C(=O)NCC2(N3CCOCC3)CCCCC2)c1,inactive: -9.19%

# Reference: PubChem BioAssay AID624464 (National Center for Advancing Translational Sciences (NCATS), 2012)
